## scFv variants of Ab-14 (heavy chain) against a SARS-CoV-2 spike peptide

The measurements come from Li et al. 2023 (doi:10.1038/s41467-023-39022-2) through the FLAb antibody collection.

Target peptide (SARS-CoV-2 spike, HR2 region): PDVDLGDISGINAS

Each scFv is VH, a (GGGGS)3 linker, VL, as in the parent Ab-14, and differs from it in the CDRs of the heavy chain only.
VH: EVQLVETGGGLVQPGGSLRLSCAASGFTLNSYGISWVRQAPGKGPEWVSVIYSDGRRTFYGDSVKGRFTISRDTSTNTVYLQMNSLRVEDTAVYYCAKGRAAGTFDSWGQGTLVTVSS
VL: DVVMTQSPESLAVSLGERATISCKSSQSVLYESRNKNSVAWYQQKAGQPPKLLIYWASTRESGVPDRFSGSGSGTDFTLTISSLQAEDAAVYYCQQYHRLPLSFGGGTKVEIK

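Phage display of a naive human antibody library on the peptide gave the parent. These sequences belong to a second round, designed from the earlier measurements on random variants of the parent. Group labels follow the data file (Ctrl: baseline library sampled from a position-specific scoring matrix, with some repeated check sequences; GPLM: also part of the Gaussian process libraries; Gen: genetic algorithm; a sequence that several methods proposed may carry one label only). The scFvs were displayed on barcoded MATa yeast, the peptide on MATalpha yeast. After mating in shaken culture at 30 °C for 16 h, diploids were selected and their barcode pairs sequenced. Read counts were normalised to the haploid input and turned into Kd by a linear fit to BCL2-family pairs of known affinity, for each replicate. There are six technical replicates.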

Each variant is given by its three heavy chain CDRs, as the data file delimits them; those of the parent are GFTLNSYGIS, VIYSDGRRTFYGDSVK, GRAAGTFDS. The read-out is the apparent dissociation constant on a log10 scale (nM): the lower, the stronger. Averages over replicates are reported, and they cover detected replicates only. "nd" marks a missing value. The strain was present, yet no cells mated with the target were sequenced in that replicate, which points to weak or no binding. Of ten entries with the parent sequence, four were seen in most replicates (averages 0.34 to 2.37), three in one and three in none, so single entries are noisy. Where one sequence has several entries in the source, the replicates are listed entry by entry, parted by semicolons. The authors averaged sequences with at least three values out of six and counted those with two or fewer as poor binders. Empty control strains, which show no peptide, gave a signal in 1% of pairings with all heavy chain designs; the median was 2.08 and 95% of these signals were weaker than 0.84. No background was subtracted. For each scFv, signals with the empty controls are counted beside the result, with their mean in brackets. The range of this assay differs from that of the first round, and the authors advise against merging the two.

| # | CDR-H1 | CDR-H2 | CDR-H3 | group | log10 Kd (nM) by replicate | mean log10 Kd (nM) | control signals |
|---|---|---|---|---|---|---|---|
| 1 | GFELNSYGIS | VIYSDGRRTFYHDSVK | GRAAGTFSS | Ctrl | nd 1.44 nd nd nd nd | 1.44 | 0 of 18 |
| 2 | GFPLNSYGIS | VIYSDGRRTFYGDDVK | GMAAGTFDS | Ctrl | nd nd nd nd 2.88 2.62 | 2.75 | 1 of 18 (3.05) |
| 3 | GFTLNSYGIS | VIYSDGRRTFYGDDVK | GRAAGAFDS | Ctrl | nd nd nd nd nd nd | nd | 0 of 18 |
| 4 | GFTLNSYGIS | VIYSDGRRTFYGDSVT | GRVAGTFCS | Ctrl | nd nd nd nd nd nd | nd | 0 of 18 |
| 5 | GFDLNSYGIS | VIYSDGRRTAYGDSVK | GRAYGTFDS | Ctrl | nd nd nd nd nd nd | nd | 0 of 18 |
| 6 | GFTLNSYGIS | VIYSDGRRTFYGDSVK | RRAAGTFDV | Ctrl | nd nd nd nd nd nd | nd | 0 of 18 |
| 7 | GFTLNSYGIS | VIYSDGRRTFYGDAVK | GEAAGTFDS | Ctrl | 2.34 1.04 2.19 1.37 1.40 1.35 | 1.61 | 2 of 18 (2.19) |
| 8 | GFTLKSYGIS | VIYSDGRRTFYGDSVK | GRAAATFDS | Ctrl | nd nd nd nd nd nd | nd | 0 of 18 |
| 9 | GDTLRSYGIS | VIYSDGQRTAYGDSVK | GRAAGTFDS | Ctrl | 0.91 nd nd nd nd nd | 0.91 | 0 of 18 |
| 10 | GETLNSYGIS | VIYSDGRRQFYGDSVK | GRLAGTFDS | Ctrl | 0.68 nd nd nd nd nd | 0.68 | 0 of 18 |
| 11 | GFTLNSYGIS | VIYSDGRRTAYHDSVK | GMAAGTFHS | Ctrl | nd nd nd nd nd nd | nd | 0 of 18 |
| 12 | GFTLDSYGIS | VIYSDGQRTFYGDDVK | GRAADTFDS | Ctrl | nd nd nd nd nd nd | nd | 0 of 18 |
| 13 | GFSLNSYGIS | VIYSDGRRTFYGDSVK | GEAAGTFDS | Ctrl+GPLM_Gen | nd nd nd nd nd nd; nd 0.80 nd 0.32 nd nd | 0.56 | 0 of 36 |
| 14 | GFTPNSYGIS | VIYSDGRRTFYGDKVK | GGAYGTFFS | Ctrl | nd 0.99 nd nd nd nd | 0.99 | 0 of 18 |
| 15 | GFTLNSYGIS | VIYSDGRRTAYGDSVK | SRAAGTFDS | Ctrl | nd nd nd nd nd 2.01 | 2.01 | 0 of 18 |
| 16 | GFTLNSYGIS | VIYSDGRRTFYGDSTK | GRAAGTFDS | Ctrl | nd nd nd nd nd nd | nd | 1 of 18 (3.02) |
| 17 | GFTLESYGIS | VIYSDGRRTFYGDSVK | GMAAGTFDL | Ctrl | 1.62 1.53 1.20 1.05 2.30 nd | 1.54 | 0 of 18 |
| 18 | GFPLNSYGIS | VIYSDGVRTFYGDSVK | GRAAGTFDS | Ctrl | nd 1.62 2.47 2.50 2.61 3.70 | 2.58 | 0 of 18 |
| 19 | GFTLNSYGIS | VIYSDGRRTAYSDSVK | GRLAGTFDS | Ctrl | 0.27 0.02 0.22 -0.15 0.24 0.11 | 0.12 | 0 of 18 |
| 20 | GFTLNSYGIS | VIYADGYRTFYGDDVK | GGEAGTFDS | Ctrl | 0.52 0.59 -0.31 0.03 0.34 0.51 | 0.28 | 0 of 18 |
| 21 | GFTLQSYGIS | VIYSDGRKTAYGDSVK | GRAAGTFDS | Ctrl | nd 1.51 nd nd nd nd | 1.51 | 0 of 18 |
| 22 | GPTLNSYSIS | VIYSDGRRTFYGDSVK | GEQAGSFDT | Ctrl | nd nd nd nd nd nd | nd | 0 of 18 |
| 23 | GFTLNSYGIS | VIYSDGRRTFYGDSVK | GRLAGTFPS | Ctrl | nd nd nd nd nd nd | nd | 0 of 18 |
| 24 | LFTLNSYGIS | VIYSDGRRTFYLDSVK | GRTSGTFSW | Ctrl | nd nd nd nd nd nd | nd | 0 of 18 |
| 25 | GFTLNDYGIT | VIYSDGRRTFYGDSVK | GRAAGTVDS | Ctrl | nd nd nd nd nd nd | nd | 0 of 18 |
| 26 | GFTLNSYGIS | VIYSDGRRTFYADSVK | GTAAGTFDS | Ctrl+GPLM_Gen | 1.52 1.17 1.13 1.43 1.35 1.51; 1.73 0.50 0.84 1.50 0.82 2.21 | 1.31 | 0 of 36 |
| 27 | GFTLNSYGIS | VIYSDGRRTFYGDSVR | GWAAGYADP | Ctrl | nd nd nd nd nd nd | nd | 0 of 18 |
| 28 | GLTLNSYGIS | VIYADGRRTFYNDSVR | GRAAGTFDS | Ctrl | 1.95 1.78 1.69 1.33 1.64 2.03 | 1.73 | 1 of 18 (2.89) |
| 29 | GFTLNSYGVS | VIYSDGRRTFYADSVK | GRAAGTFRS | Ctrl | nd nd nd nd nd nd | nd | 0 of 18 |
| 30 | GFTLNSYVIS | VIYEDGRRTFYEDSVV | GRAAGTSDS | Ctrl | nd nd nd nd nd nd | nd | 0 of 18 |
| 31 | GFTLRSYGIS | VIYSDGRRTFYGDSVR | GDAQGTFDA | Ctrl | nd nd nd nd nd nd | nd | 2 of 18 (2.30) |
| 32 | GFTLNSYGIS | VIYSDGRRTFYGDSVK | GREAGTFDG | Ctrl | nd nd nd nd nd 0.45 | 0.45 | 0 of 18 |
| 33 | GFTLNSYGIS | VIYSDGRRTFYLDSVK | GSAAGTFDV | Ctrl | 0.60 0.46 1.24 2.70 1.91 1.68 | 1.43 | 0 of 18 |

Picked from the list: the 2 lowest averages where every replicate gave a value.

| CDR-H1 | CDR-H2 | CDR-H3 | group | log10 Kd (nM) by replicate | mean log10 Kd (nM) | control signals |
|---|---|---|---|---|---|---|
| GFTLNSYGIS | VIYSDGRRTAYSDSVK | GRLAGTFDS | Ctrl | 0.27 0.02 0.22 -0.15 0.24 0.11 | 0.12 | 0 of 18 |
| GFTLNSYGIS | VIYADGYRTFYGDDVK | GGEAGTFDS | Ctrl | 0.52 0.59 -0.31 0.03 0.34 0.51 | 0.28 | 0 of 18 |